Experiments:
Adenosine receptor A1 [1] = molecular target: T1, Adenosine receptor A1 (Homo sapiens, UniProt P30542); assay: Inhibitory activity against binding of [3H]DPCPX to human A1 receptor (hA1) using competition binding assay
Adenosine receptor A1 [2] = molecular target: T1, Adenosine receptor A1; assay: Inhibitory activity against binding of the [3H]DPCPX to human A1 receptor (hA1) radioligands using competition binding assay
Adenosine receptor A1 [3] = molecular target: T1, Adenosine receptor A1; assay: Inhibitory activity against membranes from yeast cells transformed with human A1 receptor (hA1); type: cell-based

Sequences of proteins named here, by UniProt entry; tags and fusion partners are left off.
UniProt P30542, whole entry: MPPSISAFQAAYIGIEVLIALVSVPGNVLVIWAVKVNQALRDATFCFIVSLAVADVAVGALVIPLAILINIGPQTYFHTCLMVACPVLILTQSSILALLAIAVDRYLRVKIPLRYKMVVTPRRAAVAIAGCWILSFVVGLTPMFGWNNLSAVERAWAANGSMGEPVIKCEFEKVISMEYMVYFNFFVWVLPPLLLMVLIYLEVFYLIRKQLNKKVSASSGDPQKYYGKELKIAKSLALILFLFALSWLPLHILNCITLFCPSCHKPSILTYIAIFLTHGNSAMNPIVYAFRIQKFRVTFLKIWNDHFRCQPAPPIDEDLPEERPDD

With `CC(=O)NCCNc1nc(-c2ccccc2)nc2[nH]c(C)c(C)c12` as the compound, how does the IC50 (Adenosine receptor A1 [1]) read?
The IC50 was 24 nM.

What about the Ki (Adenosine receptor A1 [2]) of the same compound?
Its Ki is 12 nM.

What about the IC50 (Adenosine receptor A1 [3]) of the same compound?
Its IC50 is 24 nM.

— ChEMBL document CHEMBL1131846, “Selective A1-adenosine receptor antagonists identified using yeast Saccharomyces cerevisiae functional assays” (Bioorg Med Chem Lett, 1999)
